# Molecular target: T1, CDK9/Cyclin T (Homo sapiens, UniProt P50750)
# Chains of the proteins cited; added tags and fusions are not shown.
# UniProt P50750, whole entry: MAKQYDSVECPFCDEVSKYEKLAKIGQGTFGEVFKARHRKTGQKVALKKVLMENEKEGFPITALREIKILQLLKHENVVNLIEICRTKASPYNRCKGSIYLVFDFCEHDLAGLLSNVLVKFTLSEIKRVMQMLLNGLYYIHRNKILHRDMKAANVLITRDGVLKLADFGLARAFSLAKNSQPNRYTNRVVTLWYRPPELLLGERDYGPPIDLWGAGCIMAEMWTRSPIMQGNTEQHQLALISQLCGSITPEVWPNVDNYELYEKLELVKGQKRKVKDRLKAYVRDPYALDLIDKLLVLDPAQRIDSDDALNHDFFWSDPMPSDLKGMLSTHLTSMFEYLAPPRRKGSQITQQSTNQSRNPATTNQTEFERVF
# T1 construct: purchased Nanosyn, Inc. (contract assay)
# Conditions: at the biochemical IC50
smiles,measurement,value
"CC(C)N1CCN(c2ccc(Nc3ncc4cc5n(c4n3)C3(CCCCC3)CNC5=O)nc2)CC1.Cl.Cl [G1T38, 2′-((5-(4-isopropylpiperazin-1-yl)pyridin-2-yl)amino)-7′, 8′dihydro-6′Hspiro[cyclohexane1,9′ pyrazino[1′,2′:1,5]pyrrolo[2,3-d]pyrimidin]-6′-one di-hydrochloride]",selectivity between CDK4/cyclin D1 and CDK9/cyclin T,~ 30 fold
